Assay results reported in US20030171347A1, “Sigma receptor antagonists having anti-cocaine properties and uses thereof” (priority 1998, published 2003).

tested on: Male, Swiss Webster mice; experiment: Attenuation of cocaine-induced convulsions, systemic pre-treatment; conditions: doses that attenuated cocaine-induced convulsions, i.p., mice

With `OC(CCCN1CCC(O)(c2ccc(Cl)cc2)CC1)c1ccc(F)cc1` (stereo not drawn) [Reduced haloperidol, reference compound] as the compound, how does the “side effect at therapeutic doses” value read?
Its value is “marked sedation”.

same assay, conditions: historic sigma compounds 0-60 mg/kg i.p. 15 min before cocaine 60 mg/kg i.p.; observed 30 min

For `OC(CCCN1CCC(O)(c2ccc(Cl)cc2)CC1)c1ccc(F)cc1` (stereo not drawn) [Reduced haloperidol, reference compound], which “attenuation of cocaine-induced convulsions (proportion of mice convulsing)” value is on record?
The value was “significant attenuation”.

target: opiate receptors (Rattus norvegicus, UniProt P34975); experiment: Opiate receptor competition binding; conditions: read-out: Opiate; rat brain homogenates, [3H]etorphine or [3H]bremazocine

`COc1ccc(CC(=O)N(C)CCN2CCCC2)cc1` [YZ-007] was tested. Which IC50 did it give?
The IC50 was greater than 10 µM.

For `COc1ccccc1CCN(C)CCN1CCCC1`, which IC50 is on record?
The IC50 was greater than 10 µM.

Which IC50 does the source give for `CN(CCc1ccc(Cl)c(Cl)c1)CCN1CCCC1` here?
The IC50 was greater than 10 µM.

`CCN(CCc1ccc(Cl)c(Cl)c1)CCN1CCCC1` was tested. Which IC50 did it give?
The IC50 was greater than 10 µM.

`CN(CCc1ccc(N)cc1)CCN1CCCC1` [YZ-030] was tested. Which IC50 did it give?
Its IC50 is greater than 10 µM.

How did the IC50 turn out when `CN(CCc1ccccc1N)CCN1CCCC1` [YZ-032] was run?
Its IC50 is greater than 10 µM.

Which IC50 does the source give for `COc1ccccc1CC(=O)N(C)CCN1CCCC1` [YZ-008] here?
The IC50 was greater than 10 µM.

`CN(CCc1ccc(Cl)c(Cl)c1)CCN1CCCCCC1` was tested. Which IC50 did it give?
Its IC50 is greater than 10 µM.

`COc1ccc(CCN(C)CCN2CCCC2)cc1` was tested. Which IC50 did it give?
Its IC50 is greater than 10 µM.

`C=CCN(CCc1ccc(Cl)c(Cl)c1)CCN1CCCC1` was tested. Which IC50 did it give?
Its IC50 is greater than 10 µM.

`CN(CCc1cccc([N+](=O)[O-])c1)CCN1CCCC1` [YZ-027] was tested. Which IC50 did it give?
Its IC50 is greater than 10 µM.

For `COc1cccc(CC(=O)N(C)CCN2CCCC2)c1` [YZ-005], which IC50 is on record?
Its IC50 is greater than 10 µM.

With `COc1cccc(CCN(C)CCN2CCCC2)c1` as the compound, how does the IC50 read?
The IC50 was greater than 10 µM.
